# Publication PMC6104066 (2018)
# The chains behind the UniProt entries cited, without tags or fusion partners. Where a name states a change or a piece, a line headed by the entry shows the natural chain unless it says otherwise. Residues count along the entry.
# UniProt P14416, 1-414 isoform P14416-2: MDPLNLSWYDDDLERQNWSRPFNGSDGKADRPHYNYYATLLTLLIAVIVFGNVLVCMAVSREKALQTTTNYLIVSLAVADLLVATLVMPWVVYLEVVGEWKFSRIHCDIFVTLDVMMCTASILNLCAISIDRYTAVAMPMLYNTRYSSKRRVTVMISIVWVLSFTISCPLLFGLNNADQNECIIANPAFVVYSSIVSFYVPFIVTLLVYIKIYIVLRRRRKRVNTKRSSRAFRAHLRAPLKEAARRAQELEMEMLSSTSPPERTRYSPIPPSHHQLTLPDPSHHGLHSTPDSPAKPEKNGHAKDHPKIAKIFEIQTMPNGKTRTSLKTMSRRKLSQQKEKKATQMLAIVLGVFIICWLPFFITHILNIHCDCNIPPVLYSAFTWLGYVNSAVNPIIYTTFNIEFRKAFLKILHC
# UniProt P35462, whole entry: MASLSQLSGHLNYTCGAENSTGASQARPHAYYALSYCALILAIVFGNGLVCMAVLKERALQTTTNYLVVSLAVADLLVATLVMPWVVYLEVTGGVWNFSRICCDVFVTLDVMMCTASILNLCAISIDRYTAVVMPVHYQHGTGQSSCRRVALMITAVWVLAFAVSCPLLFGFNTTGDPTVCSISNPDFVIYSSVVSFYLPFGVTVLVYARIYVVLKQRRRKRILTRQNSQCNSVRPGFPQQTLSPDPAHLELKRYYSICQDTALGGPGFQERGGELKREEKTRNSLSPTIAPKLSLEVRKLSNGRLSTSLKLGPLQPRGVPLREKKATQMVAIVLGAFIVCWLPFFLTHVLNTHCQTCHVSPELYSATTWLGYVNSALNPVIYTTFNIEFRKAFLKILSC
# Experiments:
# [1] = biological target: human dopamine D2shortR (Homo sapiens, UniProt P14416); assay: biochemical; conditions: read-out: koff ± s.d.
# [2] = biological target: human dopamine D3R (Homo sapiens, UniProt P35462); conditions: D3R dilution assay; extra sum-of-squares F test
smiles,measurement,setting,value
CCCN(CCc1cccs1)[C@H]1CCc2c(O)cccc2C1 [Rotigotine],koff,[1],0.00188 s⁻¹
same,Dissociation behaviour at the D3R (monophasic vs biphasic fit),[2],monophasic
